Screens as filed in PubChem.
Sampled rows, rich in hits. Any-hit rate of the full collection: about 13%.
ALDH1A1 inh = inhibitors of human aldehyde dehydrogenase 1A1. P00352. Purified ALDH1A1, NADH fluorescence, propionaldehyde substrate. Potency, µM (highest dose often 75.3 µM), without a hit: top-dose activity, negative = inhibition, usual class: inhibitors. 220,000 compounds, 7.3% hits. AID 1030; active = well fitted inhibition curve with a large enough effect, not every such curve was filed as active; inconclusive = small, poorly fitted or top-dose-only effect, or another doubt; inactive = no such curve, though single readings can be large or run the other way;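 note: potency is the fitted concentration of half-maximal effect; plate controls were no enzyme wells and a reference inhibitor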
JMJD2E inh = inhibitors of human JMJD2E histone demethylase; B2RXH2; JMJD2E catalytic domain, FDH-coupled NADH fluorescence (FDH is formaldehyde dehydrogenase); Potency, µM (highest dose often 57.1 µM), inactives show at the highest dose activity change, negative = inhibition, hits mostly inhibitors; 230,000 compounds, 1.6% hits; active = well fitted inhibition curve with a large enough effect, not every such curve was filed as active; inconclusive = small, poorly fitted or top-dose-only effect, or another doubt; inactive = no such curve, though single readings can be large or run the other way;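 note: potency is the fitted concentration of half-maximal effect; 0% = wells with enzyme and -100% = buffer wells without enzyme; nearly all actives have a fitted effect of over 50% in size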
miR-21 reporter = raises the signal of a miR-21 reporter | HeLa miR-21 FLuc reporter, luciferase, 48 h | Potency, µM (doses to about 38.3 µM), without a hit: at the top dose reporter change, positive = more light | 340,000 tested, under 10 active | AID 2288; active = well fitted rising curve with a large enough effect; inconclusive = small, poorly fitted or top-dose-only effect; inactive = no such curve, though single readings can be large or run the other way;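 note: % of control where 0% means no effect; miR-21 action dims this reporter so a rising signal means less miR-21 action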
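HeLa cells endogenously expressing miR-21, stably carrying CMV-driven firefly luciferase with a downstream miR-21 binding site, 2000 cells/well. Titrations up to approximately 40 uM, 48 hours; luciferase luminescence read.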
Sfp inh = qHTS Assay for Inhibitors of Bacillus subtilis Sfp phosphopantetheinyl transferase (PPTase); Potency, µM, without a hit: max response, negative = inhibition, most hits filed as inhibitors; hit rate 3.5% among 310,000; Biochemical Sfp PPTase activity, qHTS; active = well fitted inhibition curve with a large enough effect; inconclusive = small, poorly fitted or top-dose-only effect, or another doubt; inactive = no such curve, though single readings can be large or run the other way;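 note: the enzyme is Sfp with the accession as filed and its product quenches rhodamine fluorescence; potency is the fitted concentration of half-maximal effect; 0% = enzyme reaction without inhibitor and -100% = no enzyme wells; top concentration of the series not given in the record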
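Sfp 15 nM + cpd, 15 min RT; start w/ rhodamine-CoA 5 uM, BHQ-2-YbbR 12.5 uM (final); 50 mM Hepes pH 7.6, 10 mM MgCl2, 0.01% NP-40, 0.01% BSA; read 525/598 nm at 0 and 30 min.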
Lamin A splicing = modulators of lamin A splicing; HeLa LMNA splicing GFP/RFP minigene ratio, 48 h; Potency, µM (top dose mostly 46.1 µM), without a hit: at the top dose ratio change, negative = inhibition, usual class: inhibitors; 200,000 compounds, 0.01% hits; active = well fitted inhibition curve with a large enough effect in the signal ratio, with a control signal flat, not every such curve was filed as active; inconclusive = small, poorly fitted or top-dose-only effect, or effect the other way, or a change in a side signal; the % refers to the signal ratio; note: potency is the fitted concentration of half-maximal effect; % is set by controls: 0 for no effect and ±100 for the full control effect
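S3 HeLa stable clones carrying a lamin A-EGFP splicing minigene plus DsRed2 were seeded at 600 cells/well in Opti-MEM with 2% FBS, pin-dosed and incubated 48 h at 37°C. Acumen cytometry (488 nm) gave the GFP/RFP total-intensity ratio.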
G9a inh = inhibitors of human histone lysine methyltransferase G9a; Q96KQ7; G9a H3K9 monomethylation, AlphaScreen, 2 h; Potency, µM (highest dose often 102 µM), inactives show at the highest dose activity, negative = inhibition, hits mostly inhibitors; 350,000 compounds, 8.8% hits; AID 504332; note: potency is the fitted concentration of half-maximal effect; % is set by controls: 0 for no effect and ±100 for the full control effect; nearly all actives have a fitted effect of over 75% in size
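Enzyme 20 nM + cpd, 15 min RT; add b-H3K9 pep 500 nM / SAM 20 uM; 2 h RT; anti-H3K9me1 Ab 0.5 ug/mL + SA donor / anti-rabbit acceptor beads 20 ug/mL each, 10 min; AlphaScreen read.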
* hit, by the source's call; ? = inconclusive; . = no result given; [ ] = dose if it differs, or a comment. Unless noted, calls come from the whole dose curve; as a rule, active = well fitted curve in the direction sought with a large enough effect; inconclusive = small, poorly fitted or top-dose-only effect, or another doubt; inactive = no such curve, though single readings can be large; an effect the other way counts as inactive or inconclusive.

Every second line gives: ALDH1A1 inh | JMJD2E inh | miR-21 reporter | Sfp inh | Lamin A splicing | G9a inh
Cc1nc(C)c(-c2csc(Nc3ccc(O)c(C(=O)O)c3)n2)s1
    . | . | -4% | -27% | . | 79µM*
Cc1nc(N)sc1-c1csc(Nc2cccc(C(=O)O)c2)n1
    . | . | -4% | -26% | . | 45µM*
Cc1cc(O)ccc1Nc1nc(-c2sc(N)nc2C)cs1
    8.9µM* | ? | -1% | -3% | 4% | 15%[59 µM]
CC(=O)c1sccc1NC(=O)CC(C)(C)CC(=O)O
    . | -26% | -2% | 12% | . | 2%
COc1ccccc1NC(=O)c1oc2ccccc2c1NC(=O)Cc1cccs1
    . | . | 1% | . | . | 6%[59 µM]
CC(C)CN1CCCC2(CCN(C(=O)c3ccco3)CC2)C1
    ? | . | . | 19% | . | 3%[12.7 µM]
CCc1ccc(OCC(=O)NNC(=O)c2ccc(NC(=O)C3CC3)cc2)cc1
    . | . | 1% | -4% | . | ?
Cc1nc(N)sc1-c1csc(Nc2ccccc2)n1
    18µM* | -1% | -33% | -10% | 7% | ?
O=C1c2cccc([N+](=O)[O-])c2C(=O)N1CCO
    6% | 4% | -6% | 7% | . | -37%
O=C1CSC(=S)N1N1C(=O)c2cccc([N+](=O)[O-])c2C1=O
    7.9µM* | -2% | -2% | 0.71µM* | 0%[46 µM] | 6.3µM*
CCNC(=O)c1ccc2c(c1)sc1nc(-c3cccc(OC)c3)cn12
    . | . | -2% | . | 12%[46 µM] | -27%[59 µM]
Cc1ccc2oc(Nc3nc(-c4ccccc4)cc(=O)[nH]3)nc2c1
    -3% | 2% | -20% | -16% | ? | 79µM*
COCc1cc(=O)[nH]c(Nc2nc3ccccc3o2)n1
    15% | ? | -1% | ? | ? | 68%[59 µM]
Cc1c(Cl)cccc1NC(=O)c1cc(S(=O)(=O)N2CCCCC2)cn1C
    . | . | 22% | . | -12%[46 µM] | -16%[59 µM]
CCN1CCc2c(C#N)c(NCc3ccccc3)nc(N(CC)CC)c2C1
    ? | ? | -28% | ? | 0% | 50µM*
N#Cc1c(NCCN)nc(NCc2ccccc2)c2c1CCN(Cc1ccccc1)C2
    ? | ? | 20% | -29% | -7% | 45µM*
O=C(COc1ccc(F)cc1)N1CCCc2ccccc21
    . | . | -21% | 6% | . | 8%
COc1cc(/C=C/C(=O)c2cccc([N+](=O)[O-])c2)cc(OC)c1OC
    25µM* | -2% | ? | -15% | ? | ?
COc1cc(/C=C/C(=O)c2ccccc2O)cc(OC)c1OC
    ? | 13% | -7% | -13% | ? | 45µM*
O=C(/C=C/c1ccccc1F)c1cccc([N+](=O)[O-])c1
    ? | -10% | -4% | 2.8µM* | ? | 28µM*
CCOC(=O)c1c(/N=C/N(C)C)sc(/C=N/Nc2ccccc2)c1-c1ccccc1Cl
    13µM* | ? | 20% | 20% | ? | 40µM*
CCOC(=O)c1c(/N=C/N(C)C)sc(/C=N/Nc2ccccc2)c1-c1ccccc1
    25µM* | ? | 13% | 2% | ? | ?
CCOC(=O)c1c(/N=C/N(C)C)sc(C=O)c1-c1ccccc1
    ? | ? | 1% | 12% | -7%[46 µM] | 7%
COc1ccc2sc(/C=C/c3ccccc3O)[n+](C)c2c1
    -13% | -13% | -8% | 56µM* | . | 45µM*
COc1ccccc1/C=C/C(=O)/C=C/c1ccccc1O
    . | ? | ? | -2% | . | ?
Cc1ccc(S(=O)(=O)NCC(c2cccnc2)N(C)C)cc1 (stereo not drawn)
    32µM* | 2% | -5% | -3% | 1% | 3%[12.7 µM]
CN(C)C(CNS(=O)(=O)c1ccc(F)cc1)c1cccnc1 (stereo not drawn)
    14% | -5% | -1% | 32% | 1% | ?
CN1CCN(C2(CNC(=O)c3ccc([N+](=O)[O-])cc3)CCCCC2)CC1
    . | . | 3% | . | ? | 1%[59 µM]
COc1ccc2[nH]c(=O)c(C(c3nnnn3CC3CCCO3)N3CCc4ccccc4C3)cc2c1 (stereo not drawn)
    ? | ? | -6% | 4% | -4% | ?
CCc1ccc2[nH]c(=O)c(C(c3nnnn3CC3CCCO3)N3CCN4CCCC4C3)cc2c1 (stereo not drawn)
    ? | ? | -4% | 35µM* | 12% | ?
Cc1cc(C)c2[nH]c(=O)c(C(c3nnnn3CC3CCCO3)N3CCC(C)CC3)cc2c1 (stereo not drawn)
    ? | ? | 3% | -21% | 2% | ?
Cc1ccc2[nH]c(=O)c(C(c3nnnn3CC3CCCO3)N3CCOCC3)cc2c1 (stereo not drawn)
    ? | ? | 3% | -9% | 8% | 6%[59 µM]
Cc1ccc2[nH]c(=O)c(C(c3nnnn3CC3CCCO3)N3CCc4ccccc4C3)cc2c1 (stereo not drawn)
    ? | ? | -6% | 22µM* | 0% | 2µM*
Cc1cc(C)c2[nH]c(=O)c(C(c3nnnn3CC3CCCO3)N3CCCC(C)C3)cc2c1 (stereo not drawn)
    ? | ? | -2% | 22µM* | -4% | 18µM*
Cc1ccc2[nH]c(=O)c(C(c3nnnn3CC3CCCO3)N3CCCc4ccccc43)cc2c1 (stereo not drawn)
    13µM* | -12% | 1% | 45µM* | 0% | 50µM*
CCc1ccc2[nH]c(=O)c(C(c3nnnn3Cc3ccc(OC)cc3)N3CCOCC3)cc2c1 (stereo not drawn)
    ? | ? | -1% | 7% | 8% | -9%[59 µM]
CCOC(=O)COc1ccccc1C(=O)c1cnn(-c2ccccc2)c1
    . | . | -50% | 4% | . | 17%
Cc1cc(C)cc(Nc2nnc(-n3nc(C)cc3C)c3ccccc23)c1
    . | . | -5% | . | . | 1%[59 µM]
COC(=O)c1cc2c(cc1[N+](=O)[O-])OCO2
    -1% | -4% | -3% | 12% | . | -13%
COC(=O)c1cc2c(cc1N)OCCO2
    ? | ? | -20% | ? | -2%[46 µM] | 56µM*
CC(=O)Nc1cc2c(cc1C(=O)c1ccccc1)OCCO2
    5% | 6% | -8% | 23% | 4% | -27%
Cc1ccc(C(=O)c2cc3c(cc2N)OCCO3)cc1
    9% | 1% | -8% | -5% | ? | 28µM*
Nc1cc2c(cc1C(=O)c1ccc(Cl)cc1)OCCO2
    0% | -4% | -12% | -8% | 8% | 45µM*
Cc1ccc(C(=O)c2cc(C)sc2N)cc1
    -21% | 6% | -11% | -25% | -1%[46 µM] | 40µM*
COc1cc(Cl)c(C)cc1Nc1nc2ccccc2c2nnc(C)n12
    . | . | -2% | . | . | 7%[59 µM]
COCCCN1CC(=O)N2C(c3cccc(OC)c3OC)c3[nH]c4ccccc4c3C[C@H]2C1=O (stereo partly drawn)
    . | . | -7% | 3% | . | 14%[2.33 µM]
COc1ccc(C(=O)N2CCC3(CC2)CN(C(=O)Nc2cccc(C#N)c2)C3)cc1
    -15% | . | . | 11% | . | -25%[12.7 µM]

Some of the entries above in another layout:
SMILES	ALDH1A1 inh	JMJD2E inh	miR-21 reporter	Sfp inh	Lamin A splicing	G9a inh
Cc1ccc2[nH]c(=O)c(C(c3nnnn3CC3CCCO3)N3CCCc4ccccc43)cc2c1 (stereo not drawn)	13µM*	-12%	1%	45µM*	0%	50µM*
CCc1ccc2[nH]c(=O)c(C(c3nnnn3Cc3ccc(OC)cc3)N3CCOCC3)cc2c1 (stereo not drawn)	?	?	-1%	7%	8%	-9%[59 µM]

Some values from the entries so far.
Cc1ccc2[nH]c(=O)c(C(c3nnnn3CC3CCCO3)N3CCCc4ccccc43)cc2c1 (stereo not drawn) | JMJD2E inh: -12%
Cc1ccc2[nH]c(=O)c(C(c3nnnn3CC3CCCO3)N3CCc4ccccc4C3)cc2c1 (stereo not drawn) | G9a inh: 2µM*
COc1cc(Cl)c(C)cc1Nc1nc2ccccc2c2nnc(C)n12 | G9a inh: 7%[59 µM]
Nc1cc2c(cc1C(=O)c1ccc(Cl)cc1)OCCO2 | G9a inh: 45µM*
